Results on 1 compound are retold here after article PMC5013675, “Nucleotide binding by the widespread high-affinity cyclic di-GMP receptor MshEN domain” (Nature Communications, 2016).

By UniProt entry, the sequences of proteins in these tests, tags left out. Residues count along the entry.
UniProt Q9KUV7, 1-145 limits assumed: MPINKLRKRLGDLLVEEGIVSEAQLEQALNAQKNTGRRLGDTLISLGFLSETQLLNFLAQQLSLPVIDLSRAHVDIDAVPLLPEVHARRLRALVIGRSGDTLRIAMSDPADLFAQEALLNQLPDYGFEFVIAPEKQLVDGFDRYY

The assay deals with VcMshEN1-145 (wild type) (Vibrio cholerae, UniProt Q9KUV7). The experiment in a line: biochemical. It counts as binding.

A word on the Kd: it is the concentration at which binding is half-saturated. The low end stands for tighter binding, the high end for weaker binding. Turning to `Nc1nc2c(ncn2[C@@H]2O[C@@H]3COP(=O)(O)O[C@H]4[C@@H](O)[C@H](n5cnc6c(N)ncnc65)O[C@@H]4COP(=O)(O)O[C@H]3[C@H]2O)c(=O)[nH]1` [cGAMP, (3′–5′)-cyclic AMP-GMP], the “Binding affinity, fold less than that with c-di-GMP” value is “approximately 1000 fold” and the Kd came out at 330 µM.
